The test has as its target human Factor XIa (Homo sapiens (Human), UniProt P03951). As to the kind of experiment: Factor XIa Assay. The class given is biochemical. The note with it: purified human Factor XIa 40 pM, Z-Gly-Pro-Arg-AFC 100 μM, pH 7.4; read-out: FXIa Ki. Here is the method: The effectiveness of a compound of the present invention as an inhibitor of Coagulation Factor XIa can be determined using a relevant purified serine protease, and an appropriate synthetic substrate. The rate of hydrolysis of the chromogenic or fluorogenic substrate by the relevant serine protease was measured both in the absence and presence of compounds of the present invention. Assays were conducted at room temperature or at 37° C. […] A decrease in the rate of fluorescence change in the presence of inhibitor is indicative of enzyme inhibition. Such methods are known to one skilled in the art. The results of this assay are expressed as the inhibitory constant, Ki.
Factor XIa determinations were made in 50 mM HEPES buffer at pH 7.4 containing 150 mM NaCl, 5 mM CaCl2, and 0.1% PEG 8000 (polyethylene glycol; JT Baker or Fisher Scientific). Determinations were made using purified human Factor XIa at a final concentration of 40 pM (Sekisui Diagnostics) and he synthetic substrate, Z-Gly-Pro-Arg-AFC, TFA salt (Sigma #C0980) at a concentration of 100 μM.
Times required to achieve equilibration between enzyme and inhibitor were determined in control experiments. Initial velocities of product formation in the absence (Vo) or presence of inhibitor (Vi) were measured. Assuming competitive inhibition, and that unity is negligible compared Km/[S], [I]/e, and [I]/e (where [S], [I], and e respectively represent the total concentrations, of substrate, inhibitor and enzyme), the equilibrium constant (Ki) for dissociation of the inhibitor from the enzyme can be obtained from the dependence of Vo/Vi on [I] shown in the following equation.

Amino acid sequences for entries named in this document (tags omitted). Residues count along the entry.
UniProt P03951, 19-387 partner: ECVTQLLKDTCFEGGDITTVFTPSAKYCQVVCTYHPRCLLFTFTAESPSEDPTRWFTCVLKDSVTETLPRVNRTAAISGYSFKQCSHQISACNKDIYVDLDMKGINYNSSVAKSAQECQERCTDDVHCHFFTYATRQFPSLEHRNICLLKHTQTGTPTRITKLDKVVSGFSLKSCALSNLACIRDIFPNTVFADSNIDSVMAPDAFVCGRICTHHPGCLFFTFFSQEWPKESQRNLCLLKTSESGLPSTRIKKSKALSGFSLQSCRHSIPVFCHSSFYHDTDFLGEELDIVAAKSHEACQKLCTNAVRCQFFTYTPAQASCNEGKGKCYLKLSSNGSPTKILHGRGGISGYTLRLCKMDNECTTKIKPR
UniProt P03951, 388-625: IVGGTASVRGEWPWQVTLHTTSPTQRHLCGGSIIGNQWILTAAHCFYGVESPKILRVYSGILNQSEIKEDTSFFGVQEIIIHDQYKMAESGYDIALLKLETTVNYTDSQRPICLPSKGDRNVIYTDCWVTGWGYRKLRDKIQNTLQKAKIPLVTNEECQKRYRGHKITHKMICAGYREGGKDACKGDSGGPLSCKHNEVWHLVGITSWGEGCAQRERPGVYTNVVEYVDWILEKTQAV

Among the data in patent publication US10093683B2, “Factor XIa inhibitors” (Merck Sharp & Dohme Corp., priority 2014, dated 2018) are Ki values, retold here.

By Ki is commonly meant the dissociation constant of the complex between target and ligand, obtained from inhibition or displacement.

With `COC(=O)Nc1ccc(C(=O)N[C@H](C[C@H](C)OC)C(=O)N2CCC[C@@]3(C2)OC(=O)Nc2ccc(Cl)c(F)c23)cc1` [Example 118D, methyl (4-(((2R,4S)-1-((R)-6-chloro-5-fluoro-2-oxo-1,2-dihydrospiro[benzo[d][1,3]oxazine-4,3′-piperidin]-1′-yl)-4-methoxy-1-oxopentan-2-yl)carbamoyl)phenyl)carbamate], the Ki came to 95.4 nM.

In the case of `COC(=O)Nc1ccc(C(=O)N[C@@H](CC2CC2)C(=O)N2CCC3(C2)C(=O)Nc2ccc(Cl)cc23)cc1` (single isomer, unassigned) [Example 20A], the Ki turned out to be 8750 nM.

In the case of `COC(=O)Nc1ccc(NC(=O)[C@@H](Cc2ccccc2)C(=O)N2CC[C@@]3(C2)OC(=O)Nc2ccc(Cl)cc23)cc1` [Example 120c, methyl (4-((R)-2-benzyl-3-((R)-6-chloro-2-oxo-1,2-dihydrospiro[benzo[d][1,3]oxazine-4,3′-pyrrolidin]-1′-yl)-3-oxopropanamido)phenyl)carbamate], the Ki worked out at 1440 nM.

As for `COC(=O)Nc1ccc(C(=O)N[C@@H](C[C@H](C)OC)C(=O)N2CCC[C@@]3(C2)OC(=O)Nc2ccc(Cl)c(F)c23)cc1` [Example 118A, methyl (4-(((2S,4S)-1-((R)-6-chloro-5-fluoro-2-oxo-1,2-dihydrospiro[benzo[d][1,3]oxazine-4,3′-piperidin]-1′-yl)-4-methoxy-1-oxopentan-2-yl)carbamoyl)phenyl)carbamate], the Ki turned out to be 2.52 nM.

Regarding `COC(=O)Nc1ccc(C(=O)N[C@@H](CC2CC2)C(=O)N2CCC3(C2)C(=O)Nc2ccc(Cl)cc23)cc1` (single isomer, unassigned) [Example 20B], the Ki was 539 nM.
